# Results taken from patent US4801614A, “Process for using endogenous enkephalins and endorphins to inhibit growth of tumerous cells” (TNI Pharmaceuticals, Inc., priority 1987, dated 1989).
# Several values for one entry are separate records, joined by “and”; a condition that tells them apart may be missing. Identical values can stand only once. Like-named read-outs stand apart in the source and are kept apart here.
# Conditions: for Blood Pressure: infusion from 9:00
# [1] = Volunteer No. 1, 10 micrograms/kg
# [2] = Volunteer No. 2, 10 micrograms/kg
smiles,measurement,setting,value
"CSCC[C@H](NC(=O)[C@H](Cc1ccccc1)NC(=O)CNC(=O)CNC(=O)[C@@H](N)Cc1ccc(O)cc1)C(=O)O [Methionine-Enkephalin, Tyr--Gly--Gly--Phe--Met]",Blood Pressure,"Volunteer No. 1, 0.010 mg/kg, readings 1 p.m. to second day 8:55, time in the cited line",100/70
same,Blood Pressure,"Volunteer No. 1, 0.010 mg/kg, readings 9:10 to second day 8:55, time in the cited line, 0.01 mg/kg",100/70 and 110/70
same,Neurological evaluations,[1],slight nystagmus 1 to 2 hours after infusion
same,"blood pressure, temperature or EKG",[1],No significant changes
same,heart rate and respiration,[1],Slight increase
same,Blood Pressure,"Volunteer No. 2, 0.010 mg/kg, readings 9:10 to next day 8:44, time in the cited line",130/80
same,Blood Pressure,"Volunteer No. 2, 0.010 mg/kg, readings 11:00 to next day 8:44, time in the cited line, 0.01 mg/kg",130/80 and 140/80
same,Neurological evaluation,[2],slight nystagmus 2 hours after infusion
same,"blood pressure, body temperature, or EKG",[2],No changes
same,Heart Rate,"Volunteer No. 2, 10 micrograms/kg, afternoon following the infusion",Slight decreases
same,Blood Pressure,"Volunteer No. 3, 0.001 mg/kg, readings 9:10 to next day 8:55, time in the cited line",110/80
same,Blood Pressure,"Volunteer No. 3, 0.001 mg/kg, readings 11:00 to next day 8:55, time in the cited line, 0.001 mg/kg",120/80 and 110/80
same,heart rate and respiratory rate,"Volunteer No. 3, 0.001 mg/kg, at the end of the infusion",Slight decreases
same,neurological finding,"Volunteer No. 3, 0.001 mg/kg, following the infusion",Slight nystagmus
same,Blood Pressure,"Volunteer No. 4, one microgram per kg, readings 11:00 to next day 8:55, time in or above the cited line",100/80 and 110/70 and 120/80
